According to ChEMBL document CHEMBL1130737, “Inhibitors of acyl-CoA:cholesterol O-acyltransferase (ACAT) as hypocholesterolemic agents: synthesis and structure-activity relationships of novel series of sulfonamides, acylphosphonamides and acylphosphoramidates” (Bioorg Med Chem Lett, 1998):

target: T1, Acyl-CoA:cholesterol acyltransferase (Oryctolagus cuniculus, UniProt Q95214); assay: In vitro inhibition of ACAT by incubation with [1-14C]oleolyl-CoA and intestinal microsomes isolated from cholesterol-fed rabbits.; set-up: species or system Intestine
T1 sequence (Q95214 whole entry): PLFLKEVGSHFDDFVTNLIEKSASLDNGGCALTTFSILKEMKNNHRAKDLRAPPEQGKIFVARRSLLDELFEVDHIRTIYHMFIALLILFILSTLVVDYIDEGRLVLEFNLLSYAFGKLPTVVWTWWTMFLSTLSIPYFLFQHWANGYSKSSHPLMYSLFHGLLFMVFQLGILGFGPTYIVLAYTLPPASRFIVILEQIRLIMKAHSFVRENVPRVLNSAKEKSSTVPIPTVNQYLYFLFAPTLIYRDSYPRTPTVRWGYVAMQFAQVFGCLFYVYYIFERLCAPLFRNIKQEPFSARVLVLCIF

| IC50 | SMILES |
| --- | --- |
| 230 nM | CCCCCCCCCCCCCCOC(=O)CS(=O)(=O)Nc1c(C(C)C)cccc1C(C)C |
| 110 nM | CCCCCCCCCCCCOC(=O)CS(=O)(=O)Nc1c(C(C)C)cccc1C(C)C |
| 4200 nM | CCCCCCCCN(CCCCCCCC)C(=O)CS(=O)(=O)Nc1c(C(C)C)cccc1C(C)C |
